{"sequences": {"note": "By UniProt entry, the sequences of proteins in these tests, tags left out.", "UniProt Q01726, whole entry": "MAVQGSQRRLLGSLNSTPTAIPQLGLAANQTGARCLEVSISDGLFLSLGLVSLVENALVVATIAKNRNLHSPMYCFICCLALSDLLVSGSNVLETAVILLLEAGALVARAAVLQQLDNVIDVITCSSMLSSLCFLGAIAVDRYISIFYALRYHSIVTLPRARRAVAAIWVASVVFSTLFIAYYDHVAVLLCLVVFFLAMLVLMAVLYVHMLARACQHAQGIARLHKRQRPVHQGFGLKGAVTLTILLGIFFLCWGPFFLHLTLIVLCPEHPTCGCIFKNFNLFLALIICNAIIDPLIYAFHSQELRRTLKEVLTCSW", "UniProt P33032, whole entry": "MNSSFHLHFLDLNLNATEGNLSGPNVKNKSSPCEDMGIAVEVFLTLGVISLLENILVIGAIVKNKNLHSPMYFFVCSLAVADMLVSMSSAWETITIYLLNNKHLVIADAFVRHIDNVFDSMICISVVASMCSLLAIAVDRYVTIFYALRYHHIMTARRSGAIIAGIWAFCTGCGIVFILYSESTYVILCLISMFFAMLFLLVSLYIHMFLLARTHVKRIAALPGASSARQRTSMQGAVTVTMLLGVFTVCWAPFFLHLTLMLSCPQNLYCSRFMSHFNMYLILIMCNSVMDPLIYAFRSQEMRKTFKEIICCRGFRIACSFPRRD", "UniProt P41968, whole entry": "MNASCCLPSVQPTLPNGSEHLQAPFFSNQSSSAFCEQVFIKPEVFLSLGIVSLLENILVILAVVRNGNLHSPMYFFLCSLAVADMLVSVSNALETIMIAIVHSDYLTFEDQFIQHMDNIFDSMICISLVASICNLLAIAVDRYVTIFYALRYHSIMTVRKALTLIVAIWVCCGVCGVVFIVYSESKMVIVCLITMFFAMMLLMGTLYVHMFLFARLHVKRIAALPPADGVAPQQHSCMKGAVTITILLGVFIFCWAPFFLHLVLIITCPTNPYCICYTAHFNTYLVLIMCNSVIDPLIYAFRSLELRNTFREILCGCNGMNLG", "UniProt P32245, whole entry": "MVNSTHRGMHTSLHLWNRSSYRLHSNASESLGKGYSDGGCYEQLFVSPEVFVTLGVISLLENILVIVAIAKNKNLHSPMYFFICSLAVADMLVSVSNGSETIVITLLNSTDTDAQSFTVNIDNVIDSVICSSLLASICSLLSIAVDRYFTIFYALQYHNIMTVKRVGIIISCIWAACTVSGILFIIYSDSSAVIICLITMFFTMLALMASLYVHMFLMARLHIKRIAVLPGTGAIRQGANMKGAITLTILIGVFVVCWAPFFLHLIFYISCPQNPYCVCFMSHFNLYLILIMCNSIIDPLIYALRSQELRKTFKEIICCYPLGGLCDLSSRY"}, "source": "patent US20260382689A1", "about": "“METHODS OF PREVENTING AND/OR TREATING SIDE EFFECTS ASSOCIATED WITH ANTI-CANCER AGENTS USING NON-NATURALLY OCCURRING MELANOCORTIN ANALOGS WITH ANTI-GDF-15 ANTIBODIES” (published 2026)", "key": {"[1]": {"assay": "Cisplatin chemotherapy-related adverse side effects, body composition and tissue weight in rats (Example 3)", "details": "three cycles of cisplatin (5, 3, 3 mg/kg i.p. weekly) with IgG control antibody, 21 days"}, "interleukin 1b (IL1b)": {"system": "interleukin 1b (IL1b)", "assay": "IL1b mRNA expression in hypothalamus by qPCR (Example 4)", "details": "cisplatin 5, 3, 3 mg/kg i.p. weekly, 21 days"}, "[2]": {"target": "melanocortin 1 receptor (MC1R) (Homo sapiens, UniProt Q01726)", "assay": "cAMP accumulation assay (HTRF), agonist and/or antagonist activity at MC1R (Example 1, Table 11)", "details": "dose-response; for EC50: cAMP"}, "[3]": {"target": "melanocortin 5 receptor (MC5R) (Homo sapiens, UniProt P33032)", "assay": "cAMP accumulation assay (HTRF), agonist and/or antagonist activity at MC5R (Example 1, Table 14)", "details": "dose-response against MC5R"}, "[4]": {"target": "human melanocortin 3 receptor (MC3R) (Homo sapiens, UniProt P41968)", "assay": "cAMP accumulation assay (HTRF), antagonist and/or agonist activity at MC3R (Example 1, Table 12, FIGS. 1-4)"}, "[5]": {"target": "human melanocortin 4 receptor (MC4R) (Homo sapiens, UniProt P32245)", "assay": "cAMP accumulation assay (HTRF), antagonist and/or agonist activity at MC4R (Example 1, Table 13, FIGS. 5-8)"}, "[6]": {"target": "T1, human MC1 receptor (MC1R) (Homo sapiens, UniProt Q01726)", "assay": "cAMP HTRF functional assay, antagonist mode, MC1R (Example 2, Table 20)", "details": "for % Inhibition Average: % inhibition of reference agonist at EC80; for % Inhibition 1: replicate 1, % inhibition of reference agonist at EC80; for % Inhibition 2: replicate 2, % inhibition of reference agonist at EC80"}, "[7]": {"target": "T2, human MC3 receptor (MC3R) (Homo sapiens, UniProt P41968)", "assay": "cAMP HTRF functional assay, antagonist mode, MC3R (Example 2, Table 22)", "details": "100 nM"}, "[8]": {"target": "T3, human MC4 receptor (MC4R) (Homo sapiens, UniProt P32245)", "assay": "cAMP HTRF functional assay, antagonist mode, MC4R (Example 2, Table 24)", "details": "100 nM"}, "[9]": {"target": "T1, human MC1 receptor (MC1R)", "assay": "cAMP HTRF functional assay, agonist mode, MC1R (Example 2, Table 19)", "details": "for % Activation Average: % of reference agonist activity at EC100; for % Activation 1: replicate 1, % of reference agonist activity at EC100; for % Activation 2: replicate 2, % of reference agonist activity at EC100"}, "[10]": {"target": "T1, human MC1 receptor (MC1R)", "assay": "Radioligand binding competition, MC1R (Example 2, Tables 18 and 25, FIG. 9)", "details": "for % Binding Average: residual binding of radioligand; for % Binding 1: replicate 1, residual binding of radioligand; for % Binding 2: replicate 2, residual binding of radioligand"}, "[11]": {"target": "T2, human MC3 receptor (MC3R)", "assay": "Radioligand binding competition, MC3R (Example 2, Tables 21 and 25, FIG. 9)", "details": "100 nM"}, "[12]": {"target": "T3, human MC4 receptor (MC4R)", "assay": "Radioligand binding competition, MC4R (Example 2, Tables 23 and 25, FIG. 9)", "details": "100 nM"}, "[13]": {"details": "MC3R, antagonist activity, dose-response, cAMP"}, "[14]": {"details": "Table 13, dose-response against MC4R, cAMP"}, "[15]": {"details": "average, % inhibition of reference agonist at EC80"}, "[16]": {"details": "replicate 1, % inhibition of reference agonist at EC80"}, "[17]": {"details": "replicate 2, % inhibition of reference agonist at EC80"}, "[18]": {"details": "average, % residual binding of the radioligand"}, "[19]": {"details": "replicate 1, % residual binding of the radioligand"}, "[20]": {"details": "replicate 2, % residual binding of the radioligand"}}, "note": "Like-named read-outs stand apart in the source and are kept apart here.", "data": [{"compound": "cisplatin", "values": [{"measurement": "adverse side effects", "setting": "[1]", "value": "persistent adverse side effects, including anorexia, weight loss, fatigue, fat mass and lean mass loss, muscle wasting, and leukopenia"}, {"measurement": "mRNA expression of IL1b", "setting": "interleukin 1b (IL1b)", "value": "reduced expression"}]}, {"compound": "CCCC[C@H](NC(C)=O)C(=O)N[C@H]1CC(=O)NCCCC[C@@H](C(=O)N[C@@H](C(=O)N2CCC[C@@H]2C(N)=O)C(C)C)NC(=O)[C@H](Cc2c[nH]c3ccccc23)NC(=O)[C@H](CCCNC(=N)N)NC(=O)[C@@H](Cc2ccc3ccccc3c2)NC(=O)[C@H](CC(C)C)NC1=O", "values": [{"measurement": "EC50", "setting": "[2]", "value": 47, "unit": "nM"}, {"measurement": "EC50", "setting": "[3]", "value": 0.05, "unit": "nM"}, {"measurement": "IC50", "setting": "[4]; [13]", "value": 17.6, "unit": "nM"}, {"measurement": "IC50", "setting": "[5]; [14]", "value": 14, "unit": "nM"}]}, {"compound": "CCCC[C@H](NC(C)=O)C(=O)N[C@H]1CC(=O)NCCCC[C@@H](C(=O)N[C@@H](C(=O)N2CCC[C@@H]2C(N)=O)C(C)C)NC(=O)[C@H](Cc2c[nH]c3ccccc23)NC(=O)[C@H](CCCNC(=N)N)NC(=O)[C@@H](Cc2ccc3ccccc3c2)NC(=O)CNC1=O", "values": [{"measurement": "EC50", "setting": "[2]", "value": 27, "unit": "nM"}, {"measurement": "EC50", "setting": "[3]", "value": 22, "unit": "nM"}, {"measurement": "IC50", "setting": "[4]; [13]", "value": 91.9, "unit": "nM"}, {"measurement": "IC50", "setting": "[4]; read-out: IC50 (antagonist activity on MC3R), cAMP levels, antagonist", "value": "< 10000", "unit": "nM"}, {"measurement": "IC50", "setting": "[5]; [14]", "value": 260, "unit": "nM"}, {"measurement": "IC50", "setting": "[5]; read-out: IC50 (antagonist activity on MC4R), cAMP levels, antagonist", "value": "< 10000", "unit": "nM"}]}, {"compound": "COc1cc([C@@H](C)C(=O)N2CC[C@@]3(CCc4cc(-c5ncccn5)c(C)nc4N3)C2)c(F)cn1", "values": [{"measurement": "% Inhibition Average", "setting": "[6]; 100 nM", "value": 3.93, "unit": "%"}, {"measurement": "% Inhibition 1", "setting": "[6]; 100 nM", "value": 11.58, "unit": "%"}, {"measurement": "% Inhibition 2", "setting": "[6]; 100 nM", "value": "−3.72", "unit": "%"}, {"measurement": "% Inhibition Average", "setting": "[7]; [15]", "value": 16.82, "unit": "%"}, {"measurement": "% Inhibition 1", "setting": "[7]; [16]", "value": 22.22, "unit": "%"}, {"measurement": "% Inhibition 2", "setting": "[7]; [17]", "value": 11.43, "unit": "%"}, {"measurement": "% Inhibition Average", "setting": "[8]; [15]", "value": 111.41, "unit": "%"}, {"measurement": "% Inhibition 1", "setting": "[8]; [16]", "value": 101.34, "unit": "%"}, {"measurement": "% Inhibition 2", "setting": "[8]; [17]", "value": 121.48, "unit": "%"}, {"measurement": "% Activation Average", "setting": "[9]; 100 nM", "value": 7.27, "unit": "%"}, {"measurement": "% Activation 1", "setting": "[9]; 100 nM", "value": 3.57, "unit": "%"}, {"measurement": "% Activation 2", "setting": "[9]; 100 nM", "value": 10.97, "unit": "%"}, {"measurement": "% Binding Average", "setting": "[10]; Table 18, 100 nM", "value": 111.23, "unit": "%"}, {"measurement": "% Binding 1", "setting": "[10]; Table 18, 100 nM", "value": 110.76, "unit": "%"}, {"measurement": "% Binding 2", "setting": "[10]; Table 18, 100 nM", "value": 111.71, "unit": "%"}, {"measurement": "% Binding Average", "setting": "[11]; [18]", "value": 93.02, "unit": "%"}, {"measurement": "% Binding 1", "setting": "[11]; [19]", "value": 89.69, "unit": "%"}, {"measurement": "% Binding 2", "setting": "[11]; [20]", "value": 96.36, "unit": "%"}, {"measurement": "% Binding Average", "setting": "[12]; [18]", "value": 3.45, "unit": "%"}, {"measurement": "% Binding 1", "setting": "[12]; [19]", "value": 2.88, "unit": "%"}, {"measurement": "% Binding 2", "setting": "[12]; [20]", "value": 4.02, "unit": "%"}]}, {"compound": "CC(=O)N[C@H](CC(N)=O)C(=O)N[C@H]1CC(=O)NCCCC[C@@H](C(=O)N[C@@H](C(=O)N2CCC[C@@H]2C(N)=O)C(C)C)NC(=O)[C@H](Cc2c[nH]c3ccccc23)NC(=O)[C@H](CCCNC(=N)N)NC(=O)[C@@H](Cc2ccc3ccccc3c2)NC(=O)[C@@H]2CCCN2C1=O", "values": [{"measurement": "EC50", "setting": "[2]", "value": "> 1000", "unit": "nM"}, {"measurement": "EC50", "setting": "[3]", "value": 63, "unit": "nM"}, {"measurement": "IC50", "setting": "[4]; [13]", "value": 720, "unit": "nM"}, {"measurement": "IC50", "setting": "[5]; [14]", "value": "> 1000", "unit": "nM"}]}, {"compound": "CCCC[C@H](NC(C)=O)C(=O)N[C@H]1CC(=O)NCCCC[C@@H](C(=O)N[C@@H](C(=O)N2CCC[C@@H]2C(N)=O)C(C)C)NC(=O)[C@H](Cc2c[nH]c3ccccc23)NC(=O)[C@H](CCCN=C(N)N)NC(=O)[C@@H](Cc2ccc3ccccc3c2)NC(=O)[C@@H]2CCCN2C1=O", "values": [{"measurement": "% Inhibition Average", "setting": "[6]; 10 nM", "value": "−9.63", "unit": "%"}, {"measurement": "% Inhibition 1", "setting": "[6]; 10 nM", "value": "−10.15", "unit": "%"}, {"measurement": "% Inhibition 2", "setting": "[6]; 10 nM", "value": "−9.10", "unit": "%"}, {"measurement": "% Inhibition Average", "setting": "[6]; 100 nM", "value": "−14.53", "unit": "%"}, {"measurement": "% Inhibition 1", "setting": "[6]; 100 nM", "value": "−14.89", "unit": "%"}, {"measurement": "% Inhibition 2", "setting": "[6]; 100 nM", "value": "−14.17", "unit": "%"}, {"measurement": "% Activation Average", "setting": "[9]; 10 nM", "value": 83.69, "unit": "%"}, {"measurement": "% Activation 1", "setting": "[9]; 10 nM", "value": 86.37, "unit": "%"}, {"measurement": "% Activation 2", "setting": "[9]; 10 nM", "value": 81.02, "unit": "%"}, {"measurement": "% Activation Average", "setting": "[9]; 100 nM", "value": 93.47, "unit": "%"}, {"measurement": "% Activation 1", "setting": "[9]; 100 nM", "value": 95.53, "unit": "%"}, {"measurement": "% Activation 2", "setting": "[9]; 100 nM", "value": 91.40, "unit": "%"}, {"measurement": "% Binding Average", "setting": "[10]; Table 18, 10 nM", "value": 116.84, "unit": "%"}, {"measurement": "% Binding 1", "setting": "[10]; Table 18, 10 nM", "value": 118.16, "unit": "%"}, {"measurement": "% Binding 2", "setting": "[10]; Table 18, 10 nM", "value": 115.53, "unit": "%"}, {"measurement": "% Binding Average", "setting": "[10]; Table 18, 100 nM", "value": 111.54, "unit": "%"}, {"measurement": "% Binding 1", "setting": "[10]; Table 18, 100 nM", "value": 111.27, "unit": "%"}, {"measurement": "% Binding 2", "setting": "[10]; Table 18, 100 nM", "value": 111.81, "unit": "%"}, {"measurement": "Hill Coefficient", "setting": "[2]", "value": 1.23}, {"measurement": "Top", "setting": "[2]", "value": 97.94, "unit": "%"}, {"measurement": "EC50", "setting": "[2]", "value": 0.33, "unit": "nM"}]}, {"compound": "CC[C@@H](C)[C@@H](NC(C)=O)C(=O)N[C@H]1CC(=O)NCCCC[C@@H](C(=O)N[C@@H](C(=O)N2CCC[C@@H]2C(N)=O)C(C)C)NC(=O)[C@H](Cc2c[nH]c3ccccc23)NC(=O)[C@H](CCCNC(=N)N)NC(=O)[C@@H](Cc2ccc3ccccc3c2)NC(=O)[C@@H]2CCCN2C1=O", "values": [{"measurement": "EC50", "setting": "[2]", "value": 36, "unit": "nM"}, {"measurement": "EC50", "setting": "[3]", "value": 12, "unit": "nM"}, {"measurement": "IC50", "setting": "[4]; [13]", "value": 5.92, "unit": "nM"}, {"measurement": "IC50", "setting": "[5]; [14]", "value": 230, "unit": "nM"}]}]}
